According to article PMC8594587 (Journal of medicinal chemistry, 2021):

Experiment: in vitro
Details: human

Cc1cc(/C=C/C#N)cc(C)c1Oc1nc(NC2CCN(Cc3ccc(S(N)(=O)=O)cc3)CC2)ncc1-c1ccc(N)nc1 [Compound 29a, (E)-4-((4-((5-(6-aminopyridin-3-yl)-4-(4-(2-cyanovinyl)-2,6-dimethylphenoxy)pyrimidin-2-yl)amino)piperidin-1-yl)methyl)benzenesulfonamide]
CC50: 2910 ± 650 nM
